Chains of the proteins cited; added tags and fusions are not shown. Residues count along the entry.
UniProt O15382, 28-392 limits assumed: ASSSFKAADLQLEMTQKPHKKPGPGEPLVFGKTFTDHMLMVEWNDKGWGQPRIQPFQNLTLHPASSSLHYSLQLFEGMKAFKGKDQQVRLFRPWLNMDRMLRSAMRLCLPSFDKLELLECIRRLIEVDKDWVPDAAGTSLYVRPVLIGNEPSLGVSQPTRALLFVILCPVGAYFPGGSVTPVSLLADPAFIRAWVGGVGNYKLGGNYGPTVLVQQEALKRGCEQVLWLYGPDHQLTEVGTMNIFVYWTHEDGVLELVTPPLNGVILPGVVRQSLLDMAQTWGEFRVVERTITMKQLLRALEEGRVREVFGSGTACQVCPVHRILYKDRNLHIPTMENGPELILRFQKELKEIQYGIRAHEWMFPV
UniProt P54687, whole entry: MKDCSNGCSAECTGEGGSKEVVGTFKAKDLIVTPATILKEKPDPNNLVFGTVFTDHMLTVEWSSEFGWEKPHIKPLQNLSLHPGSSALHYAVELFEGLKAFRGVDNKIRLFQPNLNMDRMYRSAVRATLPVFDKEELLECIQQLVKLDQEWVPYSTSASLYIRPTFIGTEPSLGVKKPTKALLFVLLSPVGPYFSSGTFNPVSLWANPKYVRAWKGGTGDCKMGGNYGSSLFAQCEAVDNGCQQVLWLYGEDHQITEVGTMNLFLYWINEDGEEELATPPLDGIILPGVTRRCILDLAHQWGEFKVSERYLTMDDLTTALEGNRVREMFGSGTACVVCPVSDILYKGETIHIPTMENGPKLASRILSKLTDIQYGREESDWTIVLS

According to paper PMC12487681:

Experiments:
[1] = biological target: mitochondrial branched-chain amino acid transaminase (BCATm, hBCATm, hBCAT2) (Homo sapiens, UniProt O15382); assay: cell-free enzyme-coupled assay with recombinant enzyme (Glutamate-Glo luminescence readout), 10-point dose-response
[2] = biological target: cytosolic branched-chain amino acid transaminase (BCATc, hBCATc, hBCAT1) (Homo sapiens, UniProt P54687); assay: as above

Compound: CNC(=O)c1cc2nc(-c3ccccn3)n([C@@H]3CCC[C@H](NC(=O)c4ccc(Br)s4)C3)c2cc1F
- IC50 [1]: 17 nM
- IC50 [2]: 508 nM
